Test [1] has as its target Adenosine receptor A1 (Rattus norvegicus, UniProt P25099).
Test [2] has as its target Adenosine receptor A2a (Rattus norvegicus, UniProt P30543).

The chains behind the UniProt entries cited, without tags or fusion partners.
UniProt P25099, whole entry: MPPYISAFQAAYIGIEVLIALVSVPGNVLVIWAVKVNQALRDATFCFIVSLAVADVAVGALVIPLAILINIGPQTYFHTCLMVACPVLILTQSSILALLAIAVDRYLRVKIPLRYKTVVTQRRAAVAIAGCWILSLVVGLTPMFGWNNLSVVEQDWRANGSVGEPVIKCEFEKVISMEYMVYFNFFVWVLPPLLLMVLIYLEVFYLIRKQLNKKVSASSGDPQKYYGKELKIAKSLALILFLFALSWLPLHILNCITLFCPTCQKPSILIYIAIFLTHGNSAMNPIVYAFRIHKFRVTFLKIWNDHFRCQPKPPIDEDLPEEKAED
UniProt P30543, whole entry: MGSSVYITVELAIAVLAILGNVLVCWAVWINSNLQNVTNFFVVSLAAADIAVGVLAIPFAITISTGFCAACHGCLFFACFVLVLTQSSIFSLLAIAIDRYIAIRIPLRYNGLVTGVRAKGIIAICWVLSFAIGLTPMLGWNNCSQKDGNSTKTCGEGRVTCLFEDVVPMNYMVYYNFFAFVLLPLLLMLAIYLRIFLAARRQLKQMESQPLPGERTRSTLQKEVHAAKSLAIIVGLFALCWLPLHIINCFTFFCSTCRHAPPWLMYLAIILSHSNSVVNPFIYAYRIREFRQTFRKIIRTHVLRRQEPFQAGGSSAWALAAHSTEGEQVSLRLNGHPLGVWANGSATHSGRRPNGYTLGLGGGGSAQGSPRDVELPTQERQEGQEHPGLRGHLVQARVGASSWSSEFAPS

By Ki is commonly meant a measure of affinity in units of concentration, obtained from inhibition or displacement. Read a low Ki as tighter binding. On to `COc1ccc(C(=O)c2sc(Nc3ccccc3)nc2-c2ccccc2)cc1`, for which the Ki in test [1] and in test [2] was more than 1000 nM each time.
